Measured values reported in paper PMC6151961 (Journal of Enzyme Inhibition and Medicinal Chemistry, 2018).

Assays:
[1] = RP-LC chromatographic lipophilicity (logkw); assay type: physicochemical; details: chromatographic lipophilicity from gradient RP-LC, Luna RP-C18, water/acetonitrile with 0.1% formic acid, 30 °C
[2] = biological target: T1, CA IX (Homo sapiens, UniProt Q16790); assay: Stopped-flow CA-catalysed CO2 hydration inhibition assay; assay type: biochemical; details: for logKi(CA IX): logarithm of Ki (Ki in nM), mean of three determinations; for pKi (exp.): sulphonamides with IDs C…, from Ki (nM)
[3] = biological target: T1, CA IX; assay: MALDI-TOF/TOF-MS of CA IX-inhibitor complexes; assay type: binding; details: from MALDI spectra of CA IX-inhibitor mixtures

| Structure (SMILES) | logkw [1] | logKi(CA IX) [2] | pKi (exp.) [2] | number of inhibitor molecules binding to CA IX [3] |
| --- | --- | --- | --- | --- |
| Cc1cc(C)n(-c2ccncc2S(N)(=O)=O)n1 | 1.680 | 1.394 |  |  |
| CCOC(=O)CCc1c(C)nn(-c2ccncc2S(N)(=O)=O)c1C | 2.440 | 1.290 |  |  |
| CCc1cc(CC)n(-c2ccncc2S(N)(=O)=O)n1 | 2.340 | 1.501 |  |  |
| CCCCc1c(C)nn(-c2ccncc2S(N)(=O)=O)c1C | 2.800 | 1.687 | 1.687 |  |
| Cc1nn(-c2ccncc2S(N)(=O)=O)c(C)c1C | 2.090 | 1.364 |  |  |
| CSc1nc(N)n(-c2ccncc2S(N)(=O)=O)n1 | 1.100 | 1.816 |  |  |
| NS(=O)(=O)c1cnccc1N1CCN(c2ccc(Cl)cc2)CC1 | 4.530 | 2.130 |  |  |
| NS(=O)(=O)c1cnccc1N1CCN(Cc2ccccc2)CC1 | 1.270 | 1.654 |  | two |
| NS(=O)(=O)c1cnccc1N1CCN(c2ccccc2)CC1 | 3.010 | 2.093 | 2.093 | one |
